Experimental data as given in patent US10106539B2, “Spiro-indolines for the treatment and prophylaxis of respiratory syncytial virus infection (RSV)” (REVIRAL LIMITED, priority 2014, dated 2018).

Test: Liver microsomal stability, dog
Assay type: in vitro ADME
Conditions: male, Beagle, pH 7.4; dog liver microsomes, 3 μM compound; read-out: Liver Microsomal Stability T1/2, dog
Protocol: Microsomal Incubation: Experimental Procedure
Pooled human liver microsomes (pooled male and female), pooled rat liver microsomes (male Sprague Dawley rats) and pooled dog liver microsomes (male Beagle dog) are purchased from a reputable commercial supplier and stored at −80° C. prior to use.
Microsomes (final protein concentration 0.5 mg/mL), 0.1 M phosphate buffer pH 7.4 and test compound (final substrate concentration 3 μM; final DMSO concentration 0.25%) are pre-incubated at 37° C. prior to the addition of NADPH (final concentration 1 mM) to initiate the reaction. The final incubation volume is 50 μL. A control incubation is included for each compound tested where 0.1 M phosphate buffer pH 7.4 is added instead of NADPH (minus NADPH). Two control compounds are included with each species. All incubations are performed singularly for each test compound.
Compounds are incubated for 0, 5, 15, 30 and 45 min. The control (minus NADPH) is incubated for 45 min only. […] Following protein precipitation, the sample supernatants are combined in cassettes of up to 4 compounds, internal standard is added and samples analysed by LC-MS/MS. From a plot of ln peak area ratio (compound peak area/internal standard peak area) against time, the gradient of the line is determined. Subsequently, half-life and intrinsic clearance are calculated

NCc1ccc2c(c1)nc(CN1C(=O)C3(CC3)c3ccc(F)cc31)n2CCCC(F)(F)F [Example 1, 1′-{[5-(Aminomethyl)-1-(4,4,4-trifluorobutyl)-1H-1,3-benzodiazol-2-yl]methyl}-6′-fluoro-1′,2′-dihydrospiro[cyclopropane-1,3′-indole]-2′-one]
half-life at 3 μM: 532 min
